Assay results reported in patent US10683278B2 (JINAN UNIVERSITY, priority 2015, dated 2020).

Assay: In vivo pharmacokinetic and bioavailability experiments of rats
Details: SD rats; hydrochlorides; in words
Experimental: Pharmacokinetic and bioavailability experiments of rats. SD rats were administered orally (25 mg/kg) and intravenously (2.5 to 5 mg/kg) at a single dose. Animal blood samples were taken at appropriate time points after administration, heparin was added as anticoagulant, and same were centrifuged at 8000 rpm/min for 6 minutes, the supernatant was then taken and stored at −20° C. for HPLC-MS analysis. The proteins in blood samples were precipitated with acetonitrile at 12000 rpm for 10 min, and the supernatant was used for HPCL-MS analysis. Data were fit using DAS2.0 to obtain compartmental model and non-compartmental model parameters, respectively. The oral bioavailability of each compound was calculated according to AUC data.

CCc1ccc2c(c1)c(=O)c(C(=O)Nc1ccc(Oc3ncnc4cc(OC)c(OC)cc34)c(F)c1)c(C)n2C [TL4800191, N-(4-(6,7-dimethoxyquinazolin-4-yloxy)-3-fluorophenyl)-6-ethyl-1,2-dimethyl-4-oxo-1,4-dihydroquinoline-3-carboxamide]
pharmacokinetic parameter, overall judgement: appropriate pharmacokinetic parameter
